From ChEMBL document CHEMBL4196195, “( R)- N-(1-Methyl-2-hydroxyethyl)-13-( S)-methyl-arachidonamide (AMG315): A Novel Chiral Potent Endocannabinoid Ligand with Stability to Metabolizing Enzymes” (J Med Chem, 2018)

Protein sequences, listed by entry. Tags and fused reporters are not part of them.
UniProt P34972, whole entry: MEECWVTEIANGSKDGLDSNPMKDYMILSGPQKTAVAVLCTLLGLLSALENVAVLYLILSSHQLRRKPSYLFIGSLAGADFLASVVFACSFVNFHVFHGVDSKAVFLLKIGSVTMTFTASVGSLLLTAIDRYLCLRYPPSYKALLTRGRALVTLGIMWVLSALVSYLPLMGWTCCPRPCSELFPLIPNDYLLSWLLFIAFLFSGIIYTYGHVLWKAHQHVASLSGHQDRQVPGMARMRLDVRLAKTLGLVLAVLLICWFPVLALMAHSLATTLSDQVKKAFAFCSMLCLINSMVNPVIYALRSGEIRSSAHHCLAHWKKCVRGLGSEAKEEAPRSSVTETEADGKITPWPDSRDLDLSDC

Molecular target: Cannabinoid receptor 2 (Homo sapiens, UniProt P34972)
Assay: Displacement of [3H]CP-55,940 from human CB2 receptor expressed in HEK293 cell membranes in absence of FAAH inhibitor PMSF by radioligand binding assay

CCCCC/C=C\C/C=C\C/C=C\C/C=C\CCCC(=O)NCCO [ANANDAMIDE]
Ki: 0.16 µM
